Source: patent publication US20090291945A1, “CYSTEINE PROTEASE INHIBITORS” (Teijin Pharma Limited, priority 2008, published 2009)

Sequences of proteins named here, by UniProt entry; tags and fusion partners are left off. Residues count along the entry.
UniProt P43235, 115-329 limits assumed: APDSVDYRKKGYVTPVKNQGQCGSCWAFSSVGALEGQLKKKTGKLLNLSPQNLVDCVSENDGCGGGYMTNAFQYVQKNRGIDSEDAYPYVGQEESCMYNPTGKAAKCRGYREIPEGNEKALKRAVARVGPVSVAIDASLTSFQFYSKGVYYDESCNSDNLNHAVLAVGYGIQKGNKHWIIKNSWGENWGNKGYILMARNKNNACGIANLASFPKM

Target: cathepsin K (Homo sapiens, UniProt P43235)
Assay: Cathepsin K inhibitory activity (fluorescent substrate Z-Leu-Arg-MCA)
Details: enzyme expressed in HEK293T; 15 min preincubation, 30 min reaction at room temperature, pH 5.5
Procedure: Cathepsin K inhibitory activities of the compounds synthesized according to the methods of the above examples were measured.
Cathepsin K used for evaluation of inhibitory activity was transiently expressed in an animal cell HEK293T (made by GenHunter Corporation) and the active enzyme was obtained as the enzyme fraction by using detergent containing lysis buffer.
The enzyme solution A was prepared at 2.1 times final concentration by diluting the enzyme fraction with assay buffer (50 mM sodium acetate, 50 mM sodium chloride, 2 mM DTT, pH 5.5). The test compound solutions B were prepared at 50 times final target concentrations by dimethylsulfoxide (DMSO). […]
To the enzyme solution A (38.4 μL) were added the test compound solutions B (1.6 μL) and mixed individually. […] The fluorescence intensities of the enzyme reaction solutions were measured at excitation wavelength of 355 nm and measurement wavelength of 460 nm and the enzyme activities were calculated from these fluorescence intensities caused by 7-amino-4-methylcoumarine released. The enzyme activity with using DMSO instead of the test compound solution B was taken as 100% and the inhibitory rates at each concentration of the test compound were calculated. […] The 50% inhibitory concentration against cathepsin K was calculated from this curve. […]

`CC[C@@H](CNc1ccc(OC)cc1OC)NC(=O)[C@H](CC(C)C)N[C@@H](c1ccc(OC)cc1OC)C(F)(F)F` was tested, and the “Activity Intensity (cathepsin K inhibitory activity, pIC50 class)” value was “++ (7.5≦pIC50<8.5: ++)”.

`CC[C@@H](CNc1ccc(OCC(=O)O)cc1OC)NC(=O)[C@H](CC(C)C)N[C@@H](c1ccc(S(C)(=O)=O)cc1)C(F)(F)F` was tested, and the “Activity Intensity (cathepsin K inhibitory activity, pIC50 class)” value was “+++ (8.5≦pIC50: +++)”.
